Molecular target: T1, CYP21A2 (Homo sapiens, UniProt P08686)
T1 sequence (P08686 1-495): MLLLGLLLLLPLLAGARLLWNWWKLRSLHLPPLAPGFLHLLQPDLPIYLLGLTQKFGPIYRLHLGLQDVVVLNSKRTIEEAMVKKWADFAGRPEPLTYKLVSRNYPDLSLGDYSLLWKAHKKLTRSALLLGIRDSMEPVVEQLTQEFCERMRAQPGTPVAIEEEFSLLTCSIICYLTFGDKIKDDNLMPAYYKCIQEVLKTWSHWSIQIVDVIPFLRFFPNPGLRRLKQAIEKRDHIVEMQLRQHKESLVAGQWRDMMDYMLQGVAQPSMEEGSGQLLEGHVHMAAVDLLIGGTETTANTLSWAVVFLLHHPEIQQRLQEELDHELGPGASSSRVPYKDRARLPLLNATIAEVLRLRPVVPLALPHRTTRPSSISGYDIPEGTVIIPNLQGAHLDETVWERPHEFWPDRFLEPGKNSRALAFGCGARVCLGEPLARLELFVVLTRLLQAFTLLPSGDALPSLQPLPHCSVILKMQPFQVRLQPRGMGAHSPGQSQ
Test: H295R cell assay, CYP21A2 activity
Type: cell-based
Conditions: H295R cells; read-out: IC50 for inhibition of CYP21A2 activity
Experimental: This cellular assay was also used to evaluate inhibitor selectivity.
The H295R steroid hormone synthesis assay was performed according to the OECD validation guideline. Cells were cultured in DMEM/F12 media supplemented with 1% ITS-premix and 2.5% Nu-serum at 37 °C with a 5% CO2 atmosphere. The cells were only used for experiments between passage […]. During exposure experiments, cells were grown in 24 well plates with a density of 3 × 10^5 cells/mL. […] To avoid interference from low levels of steroid hormones present in the Nu-serum, the exposure experiment was conducted with serum-free media. Each compound was tested at a minimum of seven concentration levels using three or more replicates and the experiment was repeated on two different days (n = 6–15). On each test plate a solvent control (SC) (medium with 0.1% DMSO) was included in triplicate and the maximal concentration of DMSO in the cell medium was 0.1%[49]. After 48 hours of incubation in presence of the test compounds, 950 μL of the medium was carefully removed and internal standards (50 μl of 0.1 μg/μl solution containing deuterated steroid analogues) were added. Samples were stored at −20 °C for later analysis.

## C[C@]12CC[C@H](O)CC1=CC[C@@H]1[C@@H]2CC[C@]2(C)C(c3cccnc3)=CC[C@@H]12 [abiraterone, reference compound]
  IC50: 240 nM
